For this experiment, the system named is T47D. As to the kind of experiment: Antiproliferative activity against human T47D cells after 48 hrs by MTT assay. It is filed as functional, cell-based. (Formazan colour is commonly taken as a measure of viable cells.)

For `Cc1cc(C)c2nc(-c3cc4ccccc4n3Cc3ccccc3)[nH]c2c1`, the Activity entry was “Dose-dependent effect”.

Regarding `c1ccc(Cn2c(-c3nc4ccccc4[nH]3)cc3ccccc32)cc1`, the Activity result is “Dose-dependent effect”.

As for `Brc1ccc2[nH]c(-c3cc4ccccc4[nH]3)nc2c1`, the Activity result was “Dose-dependent effect”.

With `BrC1=CN2NC(c3cc4ccccc4[nH]3)=NC2N=C1` (centres undefined), the Activity entry is “Dose-dependent effect”.

Turning to `c1ccc(Cn2c(-c3nc4cc5ccccc5cc4[nH]3)cc3ccccc32)cc1`, the Activity result was “Dose-dependent effect”.

`c1ccc2cc3[nH]c(-c4cc5ccccc5[nH]4)nc3cc2c1`: the Activity entry was “Dose-dependent effect”.

For `Brc1cnc2[nH]c(-c3cc4ccccc4[nH]3)nc2c1`, the Activity result is “Dose-dependent effect”.

In the case of `Clc1cc2nc(-c3cc4ccccc4n3Cc3ccccc3)[nH]c2cc1Cl`, the Activity entry is “Dose-dependent effect”.

Turning to `Brc1ccc2[nH]c(-c3cc4ccccc4n3Cc3ccccc3)nc2c1`, the Activity entry was “Dose-dependent effect”.

On to `Clc1cc2nc(-c3cc4ccccc4[nH]3)[nH]c2cc1Cl`, for which the Activity result is “Dose-dependent effect”.

For the compound `Cc1cccc2[nH]c(-c3cc4ccccc4[nH]3)nc12`, the Activity entry is “Dose-dependent effect”.

As to `c1ccc2[nH]c(C3=Nc4cccc5cccc(c45)N3)cc2c1`, the Activity entry was “Dose-dependent effect”.

Take `c1ccc2[nH]c(-c3nc4ccccc4[nH]3)cc2c1`: the Activity entry was “Dose-dependent effect”.

With `Cc1cc(C)c2nc(-c3cc4ccccc4[nH]3)[nH]c2c1`, the Activity result was “Dose-dependent effect”.

The values are drawn from ChEMBL document CHEMBL4145507, “Design, synthesis and biological evaluation of novel indole-benzimidazole hybrids targeting estrogen receptor alpha (ER-α)” (Eur J Med Chem, 2018).
